Assay results published in patent US8846363B2, “Compositions of and methods of using sulfatases from Flavobacterium heparinum” (priority 2007, dated 2014).

Protein sequences, listed by entry. Tags and fused reporters are not part of them. Lines headed by an entry give the natural chain unless they say otherwise; changes in a name come on top.
UniProt C6Y1N4, entry or part of it: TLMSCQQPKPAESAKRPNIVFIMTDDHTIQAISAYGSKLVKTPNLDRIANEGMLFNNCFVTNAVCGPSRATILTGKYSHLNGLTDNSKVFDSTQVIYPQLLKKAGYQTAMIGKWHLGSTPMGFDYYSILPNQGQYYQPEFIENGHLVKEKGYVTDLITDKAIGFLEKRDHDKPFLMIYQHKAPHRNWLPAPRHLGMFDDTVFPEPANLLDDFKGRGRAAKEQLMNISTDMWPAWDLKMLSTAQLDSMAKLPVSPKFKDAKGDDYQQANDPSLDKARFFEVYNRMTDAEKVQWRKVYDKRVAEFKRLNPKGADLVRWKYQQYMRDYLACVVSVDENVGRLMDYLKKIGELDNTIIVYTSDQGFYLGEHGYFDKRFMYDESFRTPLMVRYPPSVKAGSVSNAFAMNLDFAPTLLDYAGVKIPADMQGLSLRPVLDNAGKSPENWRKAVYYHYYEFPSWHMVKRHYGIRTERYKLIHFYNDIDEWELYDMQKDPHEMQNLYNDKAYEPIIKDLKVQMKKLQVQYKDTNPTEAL

Biological target: T1, Flavobacterium heparinum 6-O-sulfatase (ORF B), recombinant, NH2-terminal truncation lacking signal sequence, SEQ ID NO: 2 (Pedobacter heparinus, UniProt C6Y1N4)
T1 construct: E. coli BL21(DE3), N-terminal 6xHis removed by thrombin
Experiment: Inhibition of 6-O-sulfatase activity (sulfate, phosphate, chelators)
Format: biochemical
Details: normalized to 0 sulfate or phosphate added; read-out: concentration for 50% inhibition of 6-O-sulfatase activity

## phosphate
  IC50: ~2 mM
